Test results reported in PubChem BioAssay AID706 (SRMLSC, 2007).
The entries are a selection whose mix differs from that of the whole data set. Active and inactive are the calls of the source.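 How the source made its calls: active means growth inhibition above a set limit, 3 SD over mean compound inhibition, in both replicates (cut at about 43% in these data); inconclusive means above the limit in only one replicate; inactive means at or below the limit in both replicates.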

assay: Restrictive medium S. cerevisiae growth inhibition, OD615, pilot screen of yeast lifespan reduction project, restrictive growth control (AID 706); details: OD615, 48 h, at 10 µM, active compounds read high
Outline: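 Assay system – genetically modified Saccharomyces cerevisiae, DeaD replicative lifespan assay strain · Medium – CSMM-D glucose medium · Doses – 10 µM compound, 0.25% DMSO · Times – 4 h pre-incubation, 48 h exposure at 30 °C · Signal – optical density at 615 nm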

SMILES	growth inhibition
Fc1ccccc1NC1CCN(Cc2ccccc2)CC1	inactive: -16.8%
